These are literature values, as cited in US20230062537A1, “Therapy of oxygen pulses for treating neurodegenerative disorders such as Parkinson Disease (PD), Alzheimer’s Disease (AD), Amiotrophic Lateral Sclerosis (ALS) or Motor Neuron Disease (MND) and other dementias, and Lymphedema, Arthritis and Depression” (priority 2021, published 2023).

The structures appear in SMILES notation.

This data set deals with MND. The conditions noted are these: clinical trials; cited from earlier work.

As to `Nc1nc2ccc(OC(F)(F)F)cc2s1` [riluzole], the survival result was “prolong survival by several months”.
